Reference: paper PMC12102759

B1: MBOAT1 peptide 17-32 (Lysophospholipid acyltransferase 1), 16-mer library wild type / USP7 MATH (USP7 MATH domain, residues 53-206) (parent)
chain 1: STYLHPLSELLGIPLD
chain 2: NTAEEDMEDDTSWRSEATFQFTVERFSRLSESVLSPPCFVRNLPWKIMVMPRFYPDRPHQKSVGFFLQCNAESDSTSWSCHAQAVLKIINYRDDEKSFSRRISHLFFHKENDWGFSNFMAWSEVTDPEKGFIDDDKVTFEVFVQADAPHGVAWD
B2: AZIN2 peptide 1-16 (Antizyme inhibitor 2), 16-mer library wild type / USP7 MATH (USP7 MATH domain, residues 53-206) (parent)
chain 1: MAGYLSESDFVMVEEG
chain 2: B1 chain 2

Variants of: B1
Assay: proteomic peptide phage display deep mutational scan (ProP-PD DMS): M13 P8 16-mer library selected against immobilised GST-tagged bait for four days (rounds), NGS of the eluted pools per day and pseudo-replica
Settings: with USP7 MATH (USP7 MATH domain, residues 53-206); bait immobilised on MaxiSorp plates (10 µg), library pre-cleared on GST, 2 h binding at 4 °C, five washes; one round per day, days 1-4; value from days 2 and 3; keep out of graded; scale: average fractional NGS count over selection days 2 and 3

Screen value: each site, then its substitutions
chain 1 E9: I 0 | L 0 | P 0 | S 0 | Y 6.69e-06
chain 1 G12: A 0.00987 | D 0 | F 1.43e-05 | H 0.000403 | I 0 | K 0 | M 5.33e-05 | N 6.89e-05 | P 5.99e-05 | Q 0.000621 | R 6.19e-05 | S 0.000155 | T 0.00144 | W 2.65e-05 | Y 1.55e-05
chain 1 H5: F 0 | L 0 | M 0 | N 0.00442 | Q 0 | S 2.39e-05 | T 0
chain 1 I13: D 0 | F 0.000169 | G 8.6e-06 | H 8.7e-05 | L 0.00171 | N 0 | Q 0.00251 | T 0.00016 | Y 0.00153
chain 1 L4: A 1.8e-05 | D 0 | H 4.32e-05 | I 0.00767 | M 6.6e-05 | N 0 | P 0.000124 | S 0 | T 2.04e-05 | V 5.14e-05 | W 0.000444 | Y 0.000455
chain 1 L7: I 0 | M 0 | W 0 | Y 0
chain 1 L10: D 6.69e-06 | F 0.002 | H 0.00014 | M 0.000356 | P 0 | S 3.94e-05 | W 1.04e-05 | Y 0.133
chain 1 L11: A 0.000148 | F 3.52e-05 | H 0 | I 0.000136 | M 1.26e-05 | N 4.27e-05 | Q 0 | R 9.83e-05 | S 9.4e-06 | V 2.33e-05 | W 0.0649 | Y 0.00517
chain 1 L15: A 2.33e-05 | F 0.00201 | G 8.36e-05 | H 0 | I 0.000175 | M 8.73e-05 | P 0 | Q 0 | T 9.88e-05 | V 0.000652 | W 8.63e-05 | Y 0.000946
chain 1 P6: E 0
chain 1 P14: A 0.00152 | D 7.26e-05 | E 6.79e-05 | F 0 | G 1.93e-05 | H 0 | I 1.04e-05 | L 0 | M 0.00152 | N 1.04e-05 | Q 2.39e-05 | V 6.69e-06 | W 0 | Y 6.69e-06
chain 1 S1: A 0.000139 | D 0.000374 | E 0.000118 | F 0.000299 | H 0.000193 | I 0.000136 | K 0 | L 4.85e-05 | M 1.74e-05 | N 0.0012 | P 0.000172 | Q 0.000128 | R 0 | T 3.24e-05 | V 0.00194 | W 0.000375 | Y 0.00384
chain 1 S8: G 0 | N 0 | P 0
chain 1 T2: A 1.45e-05 | D 0.00105 | E 0 | F 0.00112 | H 1.82e-05 | I 2.33e-05 | K 0 | L 6.5e-05 | M 0 | P 9.63e-06 | Q 2.12e-05 | R 0 | S 2.98e-05 | V 0.000358 | W 9.63e-06 | Y 0.00203
chain 1 Y3: A 0.00209 | D 0.000183 | E 1.45e-05 | F 0 | G 0.000373 | H 8.51e-05 | I 0 | K 0 | M 4.01e-05 | N 2.33e-05 | P 0.000475 | Q 1.16e-05 | S 3.01e-05 | T 1.61e-05 | W 0

Variants of: B2
Assay: as above
Settings: with USP7 MATH (USP7 MATH domain, residues 53-206); bait immobilised on MaxiSorp plates (10 µg), library pre-cleared on GST, 2 h binding at 4 °C, five washes; one round per day, days 1-4; value from days 2 and 3; keep out of graded; scale: average fractional NGS count over selection days 2 and 3

Screen value of substitutions, site by site:
chain 1 A2: D 0 | M 0 | S 0 | T 0
chain 1 D9: I 3.24e-05 | R 3.97e-05 | S 4.99e-05 | T 3.12e-05 | Y 3.24e-05
chain 1 E7: A 0 | K 4.9e-05
chain 1 E14: H 0 | T 1.42e-05 | V 0
chain 1 E15: A 0 | D 1.04e-05 | P 0
